Experimental data: patent publication US20250057893A1, “PHARMACEUTICAL COMPOSITION FOR PREVENTING OR TREATING CANCER OR INFLAMMATORY DISEASE” (ENTEROBIOME INC., priority 2021, published 2025)
In brackets after ≈: the same amount, converted by molar mass.

System: Bacteroides thetiotaomicron ATCC 29741
Assay: Antimicrobial susceptibility, broth microdilution MIC (CLSI), QC strain
Details: ATCC29741 / ATCC297415, read-out: MIC, QC ATCC 297415

CCC[C@@H]1C[C@@H](C(=O)N[C@@H]([C@H]2O[C@H](SC)[C@H](O)[C@@H](O)[C@H]2O)[C@H](C)Cl)N(C)C1 [CLI, clindamycin]
MIC: 4 µg/mL (≈ 9.41 µM)
